Reference: ChEMBL document CHEMBL1649228, “In vivo antibacterial activity of vertilmicin, a new aminoglycoside antibiotic” (2009)

What was measured:
Klebsiella pneumoniae [1] = conditions: 935
Escherichia coli [2] = conditions: 1515
Escherichia coli [3] = conditions: 9612, 40 mg/kg
Escherichia coli [4] = conditions: 9612, 8.64 mg/kg
Escherichia coli [5] = conditions: 9612, 5.18 mg/kg
Escherichia coli [6] = conditions: 9612, 14.4 mg/kg
Escherichia coli [7] = conditions: 9612, 24 mg/kg
Escherichia coli [8] = conditions: 9612, 1 mg/ml
Escherichia coli [9] = conditions: ATCC 25922
Klebsiella pneumoniae [10] = conditions: 967

## GENTAMICIN
Klebsiella pneumoniae [1]
  MIC: 0.5 µg/mL
Escherichia coli [2]
  MIC: 0.5 µg/mL
Escherichia coli [3]
  log10CFU/g: 2.78
Escherichia coli [4]
  log10CFU/g: 3.44
Escherichia coli [5]
  log10CFU/g: 3.71
Escherichia coli [6]
  log10CFU/g: 3.34
Escherichia coli [7]
  log10CFU/g: 3.24
Escherichia coli [8]
  log10CFU/g: 8.31
Escherichia coli [9]
  MIC: 0.5 µg/mL
Klebsiella pneumoniae [10]
  MIC: 0.5 µg/mL
